Source: ChEMBL document CHEMBL1125539 (J Med Chem, 1992)

How the values were obtained:
[1] = Growth inhibition of aerobic chinese hamster ovary fibroblast UV4 cells using an exposure time of 18 hours
[2] = Growth inhibition of aerobic chinese hamster ovary fibroblast AA8 cell line using an exposure time of 18 hours; conditions: cho-aa8
[3] = Hypoxic selectivity was measured as product of concentration and exposure time needed to reduce cell survival to 10% of control using UV4 cells at 10e6 /mL in the clonogenic assay

SMILES	IC50 [1] [µM]	IC50 [2] [µM]	CT10 [3] [µM/h]
O=[N+]([O-])c1ccc(N(CCCl)CCCl)c([N+](=O)[O-])c1	44	> 50	–
O=[N+]([O-])c1ccc(N(CCCl)CCCl)cc1	17	–	760
CN(C)C(=O)c1cccc(N(CCCl)CCCl)c1	1.2	12	–
